Laboratory results published in patent US20250313533A1, “QUINOLINE CARBOXYLIC ACID ESTER COMPOUND AND PREPARATION METHOD AND USE THEREOF” (priority 2019, published 2025).
“And” between values parts separate entries of the source, which are not always exact repeats. Identical values can stand only once. Like-named read-outs stand apart in the source and are kept apart here.

Legend:
[1] = test system: bacterial angular leaf spot in cucumbers; conditions: in vivo
bacterial blight in rice = conditions: spray before inoculation

SMILES: [Cu+2].[O-]c1cccc2cccnc12.[O-]c1cccc2cccnc12 [oxine-copper, reference compound]
- efficacy against bacterial angular leaf spot in cucumbers [1]: 15% and 10%
- efficacy against bacterial blight in rice (bacterial blight in rice; dosage 5 ppm): 6%
- efficacy against bacterial blight in rice (bacterial blight in rice; dosage 10 ppm): 10%
